Laboratory results from patent publication EP4570800A1, “CRYSTAL FORM OF PYRIDINOPYRIMIDINONE COMPOUND, ACID SALT THEREOF, CRYSTAL FORM OF ACID SALT THEREOF, AND USE” (Wuhan Humanwell Innovative Drug Research and Development …, priority 2022, dated 2024).

Test system: NCI-H1975 non-small cell lung cancer
Assay: In vivo efficacy test of NCI-H1975 non-small cell lung cancer (combination with osimertinib)
Set-up: species or system mice
Conditions: 1 mg/kg, QD
Description: NCI-H1975 tumor cells were cultured in an incubator at 37°C and 5% CO2 using medium containing inactivated RPMI 1640 + 10% FBS. After reaching a confluency rate of 80 to 90%, the cells were passaged by subculturing. After one week of adaptive feeding in mice, NCI-H1975 cells in logarithmic phase were inoculated subcutaneously into the right flank of mice at a concentration of 5 × 10^6/100 µL. Tumor growth was regularly monitored until the tumors reached an average volume of 100 to 150 mm^3. […] Tumor size and animal weight were measured and recorded before and during the administration process. The differences in tumor size between the model group and administration group were compared to determine the efficacy.

## C=CC(=O)Nc1cc(Nc2nccc(-c3cn(C)c4ccccc34)n2)c(OC)cc1N(C)CCN(C)C [Osimertinib]
  Tumor weight inhibition rate (relative to the vehicle group): 22%
